Each structure is given as a SMILES string.

This assay in a line: Inhibition of Pseudomonas aeruginosa PAO1 LecB expressed in Escherichia coli BL21(DE3) cells incubated for 4 to 8 hrs by (N-(fluorescein-5-yl)-N'-(alpha-L-fucopyranosyl ethylene)thiocarbamide) reporter based fluorescence polarization assay. Background: Fluorescence polarisation rises when a labelled molecule tumbles more slowly, as on binding a larger partner.

For orientation: IC50 means the concentration at which inhibition is half-maximal. A low value points to higher potency. Compound `CO[C@H]1O[C@H](CO)[C@@H](O)[C@H](O)[C@@H]1O` came in with an IC50 of 166 µM.

The values are drawn from ChEMBL document CHEMBL4673246, “Directing Drugs to Bugs: Antibiotic-Carbohydrate Conjugates Targeting Biofilm-Associated Lectins of Pseudomonas aeruginosa” (J Med Chem, 2020).
